Test results as given in US10105313B2, “Uses of rose pigment compounds” (SUNTORY HOLDINGS LIMITED, priority 2014, dated 2018).

By UniProt entry, the sequences of proteins in these tests, tags left out. Residues count along the entry.
UniProt P00772, 27-266: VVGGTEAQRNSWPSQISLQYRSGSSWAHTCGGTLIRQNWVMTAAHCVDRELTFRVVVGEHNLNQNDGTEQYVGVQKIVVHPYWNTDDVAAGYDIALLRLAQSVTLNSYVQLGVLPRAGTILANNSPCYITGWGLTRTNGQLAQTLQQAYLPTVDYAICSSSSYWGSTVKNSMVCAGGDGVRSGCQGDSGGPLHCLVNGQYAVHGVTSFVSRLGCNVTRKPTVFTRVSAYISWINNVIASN

Target: T1, elastase (Sus scrofa, UniProt P00772)
T1 construct: purchased Sigma
Test: Elastase inhibition test
Assay type: biochemical
Conditions: test concentration 80 μg/mL
Method: The blue rose petal extract, fractions thereof as products of treatment on a column (60% acetonitrile fractions), rosadelphin A1, rosacyanin A1, and tellimagrandin 1 were subjected to an elastase inhibition test that was performed by the following method.
An enzyme solution was prepared by dissolving 0.1 ml of elastase (product of Sigma) in 0.2 M Tris buffer at pH 8.0 (hereinafter referred to as a Tris buffer) to give a concentration of 0.05 units/mL and diluted 100 folds just before use. A substrate solution was prepared by dissolving N-Succinyl-Ala-Ala-Ala-p-nitroanilide (product of Sigma) in a Tris buffer to give a concentration of 4 mM. To a 96-well plate, 50 μL of a solution of each sample dissolved in 10% DMSO and 50 μL of the enzyme solution were added and after mixing them with a plate shaker, the resulting mixture was preheated at 25° C. for 10 minutes. Subsequently, 100 μL of the substrate solution was added and after mixing with a plate shaker, reaction was carried out at 25° C. for 30 minutes and immediately thereafter, the liberation of p-nitroaniline was assayed by measuring the absorbance at a wavelength of 405 nm (hereinafter designated as A405). […] The inhibitory activity of each sample was calculated in terms of the percent inhibition determined by the following formula: Percent elastase inhibition (%)=[(f−e)−{(b−a)−(d−c)}]/(f−e)×100 […]

SMILES: O=S(=O)(F)Cc1ccccc1 [PMSF, phenylmethanesulfonyl fluoride, reference compound]
- Percent elastase inhibition (%) (Table 7): * Percent inhibition by 80 μg/mL PMSF: 94.1%
- Percent elastase inhibition (%) (Table 8): * Percent inhibition by 80 μg/mL PMSF: 79.5%
